The target of this assay is recombinant human TACE catalytic domain (rhTACEc) (Homo sapiens (Human), UniProt P78536, N452Q/S266A). The assay can be described thus: TACE kinetic FRET assay (cleavage of internally quenched peptide substrate TNF-FRET 2), Ki.
The mark [1] stands for this setting: recombinant human TACE catalytic domain, FRET assay.

By UniProt entry, the sequences of proteins in these tests, tags left out. Residues count along the entry.
UniProt P78536, 215-477 S266A/N452Q: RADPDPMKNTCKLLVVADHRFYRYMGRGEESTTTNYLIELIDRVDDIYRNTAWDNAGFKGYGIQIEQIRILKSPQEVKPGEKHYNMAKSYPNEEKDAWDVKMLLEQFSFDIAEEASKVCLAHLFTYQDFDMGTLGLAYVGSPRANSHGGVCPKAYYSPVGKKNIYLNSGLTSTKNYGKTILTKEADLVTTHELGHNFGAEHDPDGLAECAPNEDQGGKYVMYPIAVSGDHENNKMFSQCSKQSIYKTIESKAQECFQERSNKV

Structures are written as SMILES. Read-outs that look alike come from different tables or passages of the source.

Usually Ki stands for the equilibrium dissociation constant of an inhibitor or competing ligand from its target. With `C#C[C@]1(CN2Cc3ccc(OC)c(F)c3C2=O)NC(=O)NC1=O` [Compound 23], the Ki (TACE) came out at 680 pM.

Consider `COc1ccc2c(c1F)C(=O)N(C[C@@]1(C#Cc3ccc4c(=O)[nH][nH]c4c3)NC(=O)NC1=O)C2` [Compound 301], for which the Ki under setting [1] worked out at 349 pM.

`COc1ccc2c(c1)C(=O)N(C[C@@]1(C#Cc3cc(F)c4c(O)n[nH]c4c3)NC(=O)NC1=O)C2` [Compound 302]: the inhibition constant Ki under setting [1] was 52.1 pM.

Regarding `COc1ccc2c(c1F)C(=O)N(C[C@@]1(C#Cc3ccc4c(c3)CN(C)C(=O)N4)NC(=O)NC1=O)C2` [Compound 307], the Ki under setting [1] worked out at 310 pM.

Turning to `Cn1cc(-c2ccc3c(c2)C(=O)N(C[C@]2(C#Cc4cccnc4)NC(=O)NC2=O)C3)cn1` [Compound 310], the Ki under setting [1] was determined as 501000 pM.

Turning to `CSc1ccc2c(c1)C(=O)N(C[C@@]1(C#Cc3cccnc3)NC(=O)NC1=O)C2` [Compound 312], the inhibition constant Ki under setting [1] came out at 391 pM.

On to `COc1ccc2c(c1)C(=O)N(C[C@@]1(C#Cc3ccc(C(O)C4CCN(C)CC4)cc3)NC(=O)NC1=O)C2` (stereo partly shown) [Compound 500], for which, under setting [1], the inhibition constant Ki was found to be 408 pM.

For the compound `COc1ccc2c(c1)C(=O)N(C[C@@]1(C#Cc3ccc4c(c3)c(N)nn4CCN(C)C)NC(=O)NC1=O)C2` [Compound 705], the Ki under setting [1] was 521 pM.

Turning to `COc1ccc2c(c1)C(=O)N(C[C@@]1(C#Cc3ccc4c(c3)c(O)nn4C)NC(=O)NC1=O)C2` [Compound 712], the Ki under setting [1] was 253 pM.

Turning to `COc1ccc2c(c1)C(=O)N(C[C@@]1(C#Cc3ccc4c(O)nn(C)c4c3)NC(=O)NC1=O)C2` [Compound 715], the Ki under setting [1] came to 259 pM.

As to `COc1ccc2c(c1)C(=O)N(C[C@@]1(C#Cc3ccc4c(CN(C)C)n[nH]c4c3)NC(=O)NC1=O)C2` [Compound 728], under setting [1], the Ki was determined as 325 pM.

`COc1ccc2c(c1)C(=O)N(C[C@@]1(C#Cc3ccc4c(-c5ccncc5)n[nH]c4c3)NC(=O)NC1=O)C2` [Compound 734]: under setting [1], the Ki was found to be 444 pM.

Regarding `COc1ccc2c(c1)C(=O)N(C[C@@]1(C#Cc3ccc(CC4CCN(C)CC4)nc3)NC(=O)NC1=O)C2` [Compound 739], under setting [1], the Ki worked out at 470 pM.

Consider `COc1ccc2c(c1)C(=O)N(C[C@@]1(C#Cc3ccc(-c4cc(N)[nH]n4)cc3)NC(=O)NC1=O)C2` [Compound 747], for which the Ki under setting [1] stood at 419 pM.

As for `COc1ccc2c(c1)C(=O)N(C[C@@]1(C#Cc3ccc4c(O)n[nH]c4c3)NC(=O)NC1=O)C2` [Compound 748], the inhibition constant Ki under setting [1] came to 237 pM.

As for `COc1ccc2c(c1)C(=O)N(C[C@@]1(C#Cc3ccc(C(=O)NS(C)(=O)=O)nc3)NC(=O)NC1=O)C2` [Compound 902], the Ki (TACE) is 1670 pM.

`COc1ccc2c(c1)C(=O)N(C[C@]1(C#Cc3cnc(N)c(C(=O)O)c3)NC(=O)NC1=O)C2` [Compound 903]: the Ki (TACE) is 501000 pM.

For `COc1ccc2c(c1)C(=O)N(C[C@@]1(C#Cc3ccc(C4(C)NC(=O)NC4=O)s3)NC(=O)NC1=O)C2` (stereo partly shown) [Compound 907], the Ki (TACE) was 440 pM.

Take `COc1ccc2c(c1)C(=O)N(C[C@@]1(C#Cc3csc(C4(C)NC(=O)NC4=O)c3)NC(=O)NC1=O)C2` (stereo partly shown) [Compound 908]: the Ki (TACE) turned out to be 420 pM.

In the case of `COc1ccc2c(c1)C(=O)N(C[C@@]1(C#Cc3ccc4oc(C5(C)NC(=O)NC5=O)cc4c3)NC(=O)NC1=O)C2` (stereo partly shown) [Compound 909], the Ki (TACE) worked out at 180 pM.

Turning to `COc1ccc2c(c1)C(=O)N(C[C@@]1(C#Cc3ccc4oc(C5(C)NC(=O)NC5=O)c(C)c4c3)NC(=O)NC1=O)C2` (stereo partly shown) [Compound 910], the Ki (TACE) stood at 220 pM.

In the case of `CCN1CCN(C(=NO)c2ccc(C#C[C@]3(CN4Cc5ccc(OC)cc5C4=O)NC(=O)NC3=O)cc2)CC1` [Compound 911], the Ki was found to be 160 pM.

Consider `COc1ccc2c(c1)C(=O)N(C[C@@]1(C#Cc3ccc(C(=NO)N4CCSCC4)cc3)NC(=O)NC1=O)C2` [Compound 912], for which the Ki was found to be 160 pM.

As to `COc1ccc2c(c1)C(=O)N(C[C@@]1(C#Cc3ccc(C(=NO)N4CCCN(C)CC4)cc3)NC(=O)NC1=O)C2` [Compound 913], the Ki (TACE) stood at 240 pM.

On to `COc1ccc2c(c1)C(=O)N(C[C@@]1(C#Cc3ccc(C(=NO)N4CCC4)cc3)NC(=O)NC1=O)C2` [Compound 914], for which the Ki (TACE) is 270 pM.

With `COc1ccc2c(c1)C(=O)N(C[C@@]1(C#Cc3cccc(C(=NO)N4CCN(C)CC4)c3)NC(=O)NC1=O)C2` [Compound 915], the inhibition constant Ki worked out at 240 pM.

As for `COc1ccc2c(c1)C(=O)N(C[C@@]1(C#Cc3cccc(C(=NO)N4CCOCC4)c3)NC(=O)NC1=O)C2` [Compound 916], the Ki was found to be 180 pM.

Take `CCN1CCN(C(=NO)c2cncc(C#C[C@]3(CN4Cc5ccc(OC)cc5C4=O)NC(=O)NC3=O)c2)CC1` [Compound 923]: the Ki came out at 390 pM.

Take `COc1ccc2c(c1)C(=O)N(C[C@@]1(C#Cc3cncc(C(=NO)N4CCCN(C)CC4)c3)NC(=O)NC1=O)C2` [Compound 924]: the Ki was found to be 710 pM.

As for `CCCCN1CCN(C(=NO)c2ccc(C#C[C@]3(CN4Cc5ccc(OC)cc5C4=O)NC(=O)NC3=O)cc2)CC1` [Compound 925], the Ki (TACE) came to 93 pM.

With `COc1ccc2c(c1)C(=O)N(C[C@@]1(C#Cc3ccc(C(=NO)N4CCN(C5CCCCC5)CC4)cc3)NC(=O)NC1=O)C2` [Compound 926], the Ki amounted to 110 pM.

As for `COc1ccc2c(c1)C(=O)N(C[C@@]1(C#Cc3ccc(C(=NO)N4CCN(C5CCCCCC5)CC4)cc3)NC(=O)NC1=O)C2` [Compound 927], the Ki worked out at 63 pM.

For `COc1ccc2c(c1)C(=O)N(C[C@@]1(C#Cc3ccc(C(=NO)N4CCN(c5ccccc5)CC4)cc3)NC(=O)NC1=O)C2` [Compound 928], the Ki is 150 pM.

Take `COc1ccc2c(c1)C(=O)N(C[C@@]1(C#Cc3ccc4c(c3)C(C)Oc3cccnc3-4)NC(=O)NC1=O)C2` (stereo partly shown) [Compound 929]: the Ki (TACE) came to 460 pM.

For the compound `CCN1CCN(C(CO)c2ccc(C#C[C@]3(CN4Cc5ccc(OC)cc5C4=O)NC(=O)NC3=O)cc2)CC1` (stereo partly shown) [Compound 930], the Ki (TACE) came to 320 pM.

For `COc1ccc2c(c1)C(=O)N(C[C@@]1(C#Cc3ccc(C(=NO)N4CCCN(C(C)C)CC4)cc3)NC(=O)NC1=O)C2` [Compound 931], for the setting “TACE”, the Ki amounted to 190 pM.

Take `CCN1CCN(Cc2ccc(C#C[C@]3(CN4Cc5ccc(OC)cc5C4=O)NC(=O)NC3=O)cc2)CC1` [Compound 933]: the Ki (TACE) was found to be 290 pM.

Regarding `COc1ccc2c(c1)C(=O)N(C[C@@]1(C#Cc3ccc(-c4ncccc4O)cc3)NC(=O)NC1=O)C2` [Compound 934], the Ki (TACE) was found to be 74 pM.

Take `COc1ccc2c(c1)C(=O)N(C[C@@]1(C#Cc3ccc(/C=N\Nc4ccccc4)cc3)NC(=O)NC1=O)C2` [Compound 935]: the Ki came out at 986 pM.

As for `CCN1CCN(c2ccc(O)c(-c3ccc(C#C[C@]4(CN5Cc6ccc(OC)cc6C5=O)NC(=O)NC4=O)cc3)n2)CC1` [Compound 936], the Ki (TACE) turned out to be 93 pM.

For the compound `COc1ccc2c(c1)C(=O)N(C[C@@]1(C#Cc3ccc(C(=NO)N4CCOCC4)cc3)NC(=O)NC1=O)C2` [Compound 941], the inhibitory constant (Ki) is 130 pM.

`COc1ccc2c(c1)C(=O)N(C[C@@]1(C#Cc3ccc(C(=NO)N4CCCC4)cc3)NC(=O)NC1=O)C2` [Compound 942]: the Ki is 190 pM.

In the case of `COc1ccc2c(c1)C(=O)N(C[C@@]1(C#Cc3ccc(C(=NO)N4CCN(C)CC4)cc3)NC(=O)NC1=O)C2` [Compound 943], the Ki was determined as 83 pM.

On to `COc1ccc2c(c1)C(=O)N(C[C@@]1(C#Cc3ccc(C(=NO)N4CCC(=O)CC4)cc3)NC(=O)NC1=O)C2` [Compound 945], for which the Ki came to 170 pM.

As to `COc1ccc2c(c1)C(=O)N(C[C@@]1(C#Cc3ccc(C(=NO)N4CCCCC4)cc3)NC(=O)NC1=O)C2` [Compound 946], the Ki was determined as 120 pM.

On to `COc1ccc2c(c1)C(=O)N(C[C@@]1(C#Cc3ccc(C(=NO)N4CCOCC4)s3)NC(=O)NC1=O)C2` [Compound 952], for which the inhibition constant (Ki) stood at 210 pM.

As for `COc1ccc2c(c1)C(=O)N(C[C@@]1(C#Cc3ccc(-c4ccccc4O)cc3)NC(=O)NC1=O)C2` [Compound 955], the Ki (TACE) was 313 pM.

As to `CCN1CCN(C(=O)c2ccc(C#C[C@]3(CN4Cc5ccc(OC)cc5C4=O)NC(=O)NC3=O)cc2)CC1` [Compound 960], the Ki under setting [1] was 364 pM.

Consider `COc1ccc2c(c1)C(=O)N(C[C@@]1(C#Cc3ccc(C(=O)N4CCN(C5CC5)CC4)cc3)NC(=O)NC1=O)C2` [Compound 961], for which the Ki under setting [1] stood at 382 pM.

For the compound `COc1ccc2c(c1)C(=O)N(C[C@@]1(C#Cc3ccc(C(=O)N4CCN(C5CCCCC5)CC4)cc3)NC(=O)NC1=O)C2` [Compound 962], the Ki under setting [1] is 452 pM.

As to `COc1ccc2c(c1)C(=O)N(C[C@@]1(C#Cc3ccc(C(=O)N4CCC(N5CCCCC5)CC4)cc3)NC(=O)NC1=O)C2` [Compound 963], under setting [1], the Ki stood at 523 pM.

With `CCN1CCN(C(=O)c2ccc(C#C[C@]3(CN4Cc5ccc(OC)c(F)c5C4=O)NC(=O)NC3=O)cc2)CC1` [Compound 964], under setting [1], the Ki was determined as 288 pM.

For the compound `COc1ccc2c(c1F)C(=O)N(C[C@@]1(C#Cc3ccc(CN4CCOCC4)nc3)NC(=O)NC1=O)C2` [Compound 965], under setting [1], the Ki stood at 437 pM.

With `COc1ccc2c(c1F)C(=O)N(C[C@@]1(C#Cc3ccc(CN4CCSCC4)nc3)NC(=O)NC1=O)C2` [Compound 966], the Ki under setting [1] was found to be 527 pM.

With `COc1ccc2c(c1F)C(=O)N(C[C@@]1(C#Cc3ccc(CN4CCCCC4)nc3)NC(=O)NC1=O)C2` [Compound 967], the Ki under setting [1] turned out to be 1210 pM.

Consider `COc1ccc2c(c1F)C(=O)N(C[C@@]1(C#Cc3ccc(CN4CCc5ccc(F)cc5C4)nc3)NC(=O)NC1=O)C2` [Compound 968], for which the Ki under setting [1] was 730 pM.

In the case of `COc1ccc2c(c1)C(=O)N(C[C@@]1(C#Cc3ccc(-c4ccccc4O)cc3)NC(=O)NC1=O)C2` [Compound 969], under setting [1], the Ki worked out at 313 pM.

Consider `COc1ccc2c(c1)C(=O)N(C[C@@]1(C#Cc3ccc(-c4nc(-c5ccncc5)ccc4O)cc3)NC(=O)NC1=O)C2` [Compound 970], for which the Ki under setting [1] turned out to be 55.6 pM.

Take `COc1ccc2c(c1)C(=O)N(C[C@@]1(C#Cc3ccc(-c4nc(-c5cccnc5)ccc4O)cc3)NC(=O)NC1=O)C2` [Compound 971]: the Ki under setting [1] was 65.1 pM.

Take `CCN1CCN(c2ccc(OC)c(-c3ccc(C#C[C@]4(CN5Cc6ccc(OC)cc6C5=O)NC(=O)NC4=O)cc3)n2)CC1` [Compound 972]: the inhibition constant (Ki) under setting [1] stood at 460 pM.

As to `COc1ccc2c(c1)C(=O)N(C[C@@]1(C#Cc3ccc(-c4nc(-c5cnn(C)c5)ccc4O)cc3)NC(=O)NC1=O)C2` [Compound 973], the inhibition constant Ki under setting [1] was found to be 52.4 pM.

The record behind these values is US8541572B2.
